Results as given in patent US20090123377A1, “Method for Testing Substances or Mixtures of Substances,Use of Said Method and Corresponding Test Kits” (BASF AKTIENGESELLSCHAFT, priority 2005, published 2009).

Test system: L-FABP
Test: Immunological determination of L-FABP by Western blotting in liver extracts of exposed rats
Conditions: rat liver extract, high dosage, 10 days, versus control after 10 days

Molecule | L-FABP level by Western blotting
Cc1c([N+](=O)[O-])cccc1[N+](=O)[O-] | decrease in L-FABP
WY 14,643 | tendency to a slight increase
